In this assay the target is cGMP-specific 3',5'-cyclic phosphodiesterase (Homo sapiens, UniProt O76074). Put plainly: Inhibitory activity against phosphodiesterase 5 from human platelets.

`c1ccc(Nc2nc(-c3ccncc3)nc3ccccc23)cc1` registered an IC50 of 1200 nM.

As to `O=[N+]([O-])c1cccc(CNc2nc(-c3ccccc3)nc3ccccc23)c1`, the half-maximal inhibitory concentration (IC50) stood at 1300 nM.

By IC50 is commonly meant the point on the concentration scale where inhibition reaches its midpoint.

Values taken from ChEMBL document CHEMBL1128541 (J Med Chem, 1995).
